SMILES strings stand for the structures. The entries are a selection whose mix differs from that of the whole data set. Calls of active or inactive are those of the source. Cut-off read from the data, not from the text of the source: active = activation above about 22%; inactive = the rest.

Sequences of proteins named here, by UniProt entry; tags and fusion partners are left off. Residues count along the entry.
UniProt P37231, 232-505 limits assumed: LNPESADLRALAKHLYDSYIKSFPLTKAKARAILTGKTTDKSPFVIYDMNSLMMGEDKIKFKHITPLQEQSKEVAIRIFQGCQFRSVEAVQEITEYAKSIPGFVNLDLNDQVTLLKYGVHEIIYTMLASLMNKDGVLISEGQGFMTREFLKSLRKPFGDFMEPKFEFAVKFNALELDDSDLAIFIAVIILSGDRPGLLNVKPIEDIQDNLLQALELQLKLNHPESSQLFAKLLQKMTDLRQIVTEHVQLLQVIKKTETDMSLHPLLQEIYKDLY
UniProt Q15596, whole entry partner: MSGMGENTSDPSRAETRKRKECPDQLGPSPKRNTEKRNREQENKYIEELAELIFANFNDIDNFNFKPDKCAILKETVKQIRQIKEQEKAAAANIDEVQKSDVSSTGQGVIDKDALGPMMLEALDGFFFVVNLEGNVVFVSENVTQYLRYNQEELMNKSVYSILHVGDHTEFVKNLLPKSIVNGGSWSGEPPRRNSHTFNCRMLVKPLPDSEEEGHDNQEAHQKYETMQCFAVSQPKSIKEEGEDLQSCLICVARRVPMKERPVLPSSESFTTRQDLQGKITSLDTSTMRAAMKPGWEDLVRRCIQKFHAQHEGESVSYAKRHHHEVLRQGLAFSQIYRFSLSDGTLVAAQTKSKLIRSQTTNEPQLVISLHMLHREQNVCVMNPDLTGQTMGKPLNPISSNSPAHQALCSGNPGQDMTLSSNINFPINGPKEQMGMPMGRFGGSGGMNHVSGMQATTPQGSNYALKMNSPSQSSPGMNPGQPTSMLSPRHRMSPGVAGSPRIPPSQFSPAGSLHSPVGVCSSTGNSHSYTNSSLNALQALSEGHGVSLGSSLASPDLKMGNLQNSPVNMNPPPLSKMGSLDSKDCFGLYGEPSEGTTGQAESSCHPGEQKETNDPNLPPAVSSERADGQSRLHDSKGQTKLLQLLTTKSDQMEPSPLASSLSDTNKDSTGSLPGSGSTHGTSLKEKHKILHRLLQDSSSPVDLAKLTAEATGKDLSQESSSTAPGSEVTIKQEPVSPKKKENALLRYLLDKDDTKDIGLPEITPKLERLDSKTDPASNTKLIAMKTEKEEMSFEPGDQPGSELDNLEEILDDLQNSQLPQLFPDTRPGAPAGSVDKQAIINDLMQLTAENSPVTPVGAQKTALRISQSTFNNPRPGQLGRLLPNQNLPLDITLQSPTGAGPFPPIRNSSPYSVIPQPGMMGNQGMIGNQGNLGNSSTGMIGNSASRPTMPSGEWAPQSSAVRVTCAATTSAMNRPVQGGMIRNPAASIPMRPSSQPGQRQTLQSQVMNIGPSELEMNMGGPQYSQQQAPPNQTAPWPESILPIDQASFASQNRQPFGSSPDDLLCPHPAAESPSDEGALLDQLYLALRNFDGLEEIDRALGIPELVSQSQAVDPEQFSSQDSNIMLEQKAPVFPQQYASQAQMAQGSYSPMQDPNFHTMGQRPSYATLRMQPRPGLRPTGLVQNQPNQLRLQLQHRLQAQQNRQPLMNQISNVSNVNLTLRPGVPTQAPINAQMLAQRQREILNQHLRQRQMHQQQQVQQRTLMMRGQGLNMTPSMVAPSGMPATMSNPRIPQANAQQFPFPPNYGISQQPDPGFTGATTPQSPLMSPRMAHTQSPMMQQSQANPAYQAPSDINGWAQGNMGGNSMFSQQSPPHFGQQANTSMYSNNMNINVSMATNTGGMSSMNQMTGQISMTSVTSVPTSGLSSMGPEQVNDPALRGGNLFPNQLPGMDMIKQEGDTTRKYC

This test addresses Peroxisome proliferator-activated receptor gamma (Homo sapiens) (UniProt P37231). The experiment in a line: agonists of PPARg-SRC-2 recruitment, primary screen, biochemical, HTS (AID 1032).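 Note: 0% = vehicle and 100% = reference agonist.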 The note with it: PPARgamma LBD-SRC-2 recruitment, at 8 µM, active compounds read high.
Turning to `COc1ccccc1OP(C)(=O)Nc1c(C)n(C)n(-c2ccccc2)c1=O` (centres undefined), the activation is inactive: 5.59%.

Take `CP(=O)(Oc1ccccc1)N1CCOC1=O` (centres undefined): the activation is inactive: 9.71%.

With `CCc1ccc(OP(C)(=O)Nc2cccnc2)cc1` (centres undefined), the activation is inactive: 1.15%.

`CCN(CC)CC(O)COC(=O)C(O)(c1ccccc1)C1CCCCC1` (centres undefined): the activation was inactive: 6.75%.

For the compound `COc1ccc(OP(C)(=O)Nc2ccc(Br)cc2)cc1` (centres undefined), the activation was inactive: 1.07%.

Take `CN(C)C(=O)c1c([N+](=O)[O-])cc([N+](=O)[O-])cc1[N+](=O)[O-]`: the activation is inactive: 4.06%.

As for `CC(C)(C)c1ccc(OP(C)(=O)O)cc1`, the activation is inactive: 0.6%.

In the case of `COc1ccccc1OP(C)(=O)Nc1ccccc1Br` (centres undefined), the activation is inactive: -1.88%.

With `CP(=O)(Nc1ccc(Cl)cc1)Oc1ccc(F)cc1` (centres undefined), the activation is inactive: 12.2%.

In the case of `CCOC(=O)c1ccc(NP(C)(=O)Oc2ccc(Cl)cc2)cc1` (centres undefined), the activation was inactive: 5.8%.

In the case of `CP(=O)(OC12CC3CC(CC(C3)C1)C2)OC12CC3CC(CC(C3)C1)C2`, the activation is inactive: 13.9%.

On to `COc1ccccc1OP(C)(=O)Nc1ccc(C)c(C)c1` (centres undefined), for which the activation is inactive: -2.69%.

With `COc1ccc(OP(C)(=O)Nc2ccccc2Br)cc1` (centres undefined), the activation was inactive: 3.42%.

As to `Cc1cc(C)cc(OP(C)(=O)Nc2cccc(C(F)(F)F)c2)c1` (centres undefined), the activation is inactive: 4.61%.

On to `CP(=O)(OCCOc1ccccc1)OCCOc1ccccc1`, for which the activation is inactive: 0.51%.

`CP(=O)(Nc1ccc(Cl)cc1Cl)Oc1ccccc1` (centres undefined): the activation is inactive: 3.45%.

Consider `Cc1nc2ccc3ccccc3c2o1.O=[N+]([O-])c1cc([N+](=O)[O-])c(O)c([N+](=O)[O-])c1`, for which the activation was inactive: 9.32%.

As to `COc1ccc(OP(C)(=O)Nc2ccccn2)cc1` (centres undefined), the activation is inactive: 8.42%.

Turning to `CN(C)CCOC(=O)C(O)(c1ccccc1)C1CCCC1` (centres undefined), the activation is inactive: -2.47%.

On to `CP(=O)(Nc1ccccn1)Oc1ccccc1` (centres undefined), for which the activation is inactive: 0.52%.

With `COc1ccccc1OP(C)(=O)Nc1ccc(C)cc1C` (centres undefined), the activation is inactive: 1.49%.

On to `CCc1ccc(OP(C)(=O)O)cc1`, for which the activation was inactive: -4.63%.

Consider `O=[N+]([O-])c1cc([N+](=O)[O-])c(Nc2ccccn2)c([N+](=O)[O-])c1`, for which the activation was inactive: 2.75%.

For the compound `Cc1c(NP(C)(=O)Oc2ccc(C(C)C)cc2)c(=O)n(-c2ccccc2)n1C` (centres undefined), the activation is inactive: -10.5%.

With `CP(=O)(Nc1ccccc1F)Oc1ccccc1` (centres undefined), the activation was inactive: 3.25%.

For the compound `CC(C)c1ccc(OP(C)(=O)Nc2ccc(SC(F)(F)F)cc2)cc1` (centres undefined), the activation was inactive: 5.75%.

On to `O=C(OCCN1CCN(CCOCc2ccccc2)CC1)C(O)(c1ccccc1)c1ccccc1`, for which the activation is inactive: -11.6%.

Regarding `CCOC(=O)c1ccc(NP(C)(=O)Oc2ccc(F)cc2)cc1` (centres undefined), the activation is inactive: 2.33%.

Turning to `COc1ccc(OP(C)(=O)Nc2ccc(SC(F)(F)F)cc2)cc1` (centres undefined), the activation is inactive: -0.96%.

With `CP(=O)(Nc1ccccc1)Oc1ccc(F)cc1` (centres undefined), the activation was inactive: 2.62%.

In the case of `CCN(CC)CCCOC(=O)C(O)(c1ccccc1)C1CCCCC1` (centres undefined), the activation is inactive: 3.14%.

`CN(C)CCOC(=O)C(O)(c1ccccc1)C1CCCCC1` (centres undefined): the activation is inactive: 4.65%.

Regarding `COc1ccc(NP(C)(=O)Oc2ccccc2OC)cc1` (centres undefined), the activation is inactive: 1.59%.

As for `COc1ccc(OP(C)(=O)Nc2cccc(Br)c2)cc1` (centres undefined), the activation was inactive: -0.26%.

With `O=[N+]([O-])c1cc([N+](=O)[O-])c(NCC2CCS(=O)(=O)C2)c([N+](=O)[O-])c1` (centres undefined), the activation was inactive: 4.12%.

Take `CCOP(C)(=S)SCC(=O)NC(C)(CC)C(=O)O` (centres undefined): the activation is inactive: 5.32%.

Regarding `Cc1ccccc1NP(C)(=O)Nc1ccccc1C`, the activation is inactive: 1.7%.

As to `CP(=O)(Nc1ccc2c(c1)OCCO2)Oc1ccccc1` (centres undefined), the activation is inactive: 0.85%.

In the case of `O=[N+]([O-])c1cc([N+](=O)[O-])c(-n2nnc3ccccc32)c([N+](=O)[O-])c1`, the activation was inactive: 6.83%.

`Cc1nc2ccc3ccccc3c2s1.O=[N+]([O-])c1cc([N+](=O)[O-])c(O)c([N+](=O)[O-])c1`: the activation is inactive: 3.31%.

Consider `CP(=O)(Nc1ccc(SC(F)(F)F)cc1)Oc1ccccc1` (centres undefined), for which the activation is inactive: 9.82%.

For `CCCOc1ccc(NP(C)(=O)Oc2ccc(Cl)cc2)cc1` (centres undefined), the activation is inactive: -13.9%.

As for `COc1ccccc1OP(C)(=O)Nc1c(C)cccc1C` (centres undefined), the activation was inactive: -0.78%.

Turning to `CN1CCCCC1COC(=O)C1(O)c2ccccc2CCc2ccccc21` (centres undefined), the activation is inactive: -1.34%.

Take `CC1=NCCc2c1[nH]c1ccccc21.O=[N+]([O-])c1cc([N+](=O)[O-])c(O)c([N+](=O)[O-])c1`: the activation was inactive: 9.06%.

For the compound `CCOC(=O)c1ccc(NP(C)(=O)Oc2cc(C)cc(C)c2)cc1` (centres undefined), the activation is inactive: -1.71%.

As to `Cc1cc(C)cc(OP(C)(=O)Nc2ccc(C)cc2C)c1` (centres undefined), the activation is inactive: 2.33%.

For `Cc1ccc(C)c(NP(C)(=O)Oc2ccccc2)c1` (centres undefined), the activation was inactive: -0.6%.

On to `CP(=O)(Nc1cccc(Br)c1)Oc1ccccc1` (centres undefined), for which the activation was inactive: 3.09%.

For the compound `Cc1cc(C)cc(OP(C)(=O)Nc2ccccn2)c1` (centres undefined), the activation is inactive: 0.5%.

Turning to `CCN(CC)CCCOC(=O)C(O)(c1ccccc1)c1ccccc1`, the activation is inactive: 5.26%.

Regarding `O=[N+]([O-])c1ccc2c(c1)C=Nc1ccccc1O2`, the activation was inactive: 0.13%.

Turning to `CC(C)(C)c1ccc(OP(C)(=O)Nc2ccc(SC(F)(F)F)cc2)cc1` (centres undefined), the activation is inactive: -4.1%.

For the compound `Cc1cccc(C)c1OP(C)(N)=O` (centres undefined), the activation was inactive: 2.77%.

Turning to `Cc1cc(C)cc(OP(C)(N)=O)c1` (centres undefined), the activation was inactive: 3.31%.

`COc1ccc(OP(C)(=O)Nc2cccc(F)c2)cc1` (centres undefined): the activation is inactive: 2.05%.

As to `COc1ccccc1OP(C)(=O)Nc1ccc(C)cc1` (centres undefined), the activation was inactive: 6.29%.

Consider `Cc1ccc(NP(C)(=O)Oc2ccccc2)c(C)c1` (centres undefined), for which the activation was inactive: 4.41%.

In the case of `CCOC(=O)c1ccc(NP(C)(=O)Oc2ccccc2)cc1` (centres undefined), the activation is inactive: 0.7%.

With `CP(=O)(Nc1ccccc1Br)Oc1ccccc1` (centres undefined), the activation was inactive: 12.1%.

On to `COc1ccccc1OP(C)(=O)Nc1ccccc1` (centres undefined), for which the activation was inactive: 7.48%.

Consider `CP(=S)(Nn1cnnc1)Oc1ccccc1` (centres undefined), for which the activation is inactive: 10.3%.

As to `CP(=O)(NC(=O)Nc1ccccc1)Oc1ccccc1` (centres undefined), the activation is inactive: 0.04%.

`Cc1cc(C)cc(OP(C)(=O)Nc2ccc(SC(F)(F)F)cc2)c1` (centres undefined): the activation was inactive: -5.44%.

As for `Cc1cccc(C)c1OP(C)(=O)Nc1ccc(SC(F)(F)F)cc1` (centres undefined), the activation is inactive: -0.62%.

Take `CP(=O)(Oc1ccccc1)OC(c1ccccc1)C(F)(F)F` (centres undefined): the activation is inactive: 7.27%.

With `CP(=O)(Nc1ccccn1)Oc1ccc(Cl)cc1` (centres undefined), the activation was inactive: 7.32%.

Take `CCOC(=O)c1ccc(NP(C)(=O)Oc2ccc(OC)cc2)cc1` (centres undefined): the activation was inactive: 6.53%.

Regarding `CCOP(C)(=S)SCC(=O)NC(C)C(=O)O` (centres undefined), the activation was inactive: 8.2%.

The values are drawn from PubChem BioAssay AID1032 (The Scripps Research Institute Molecular Screening Center, 2008).
